According to publication PMC7145534, “Are the intrinsically disordered linkers involved in SSB binding to accessory proteins?” (Nucleic Acids Research, 2019):

Legend:
Conditions in all cases: both partners purified
[1] = target: T1, Escherichia coli RecO protein (E. coli, UniProt P0A7H3 1-242); experiment: ITC; apo wtSSB tetramer and RecO, fits with N floated (RecO per SSB tetramer), told for 15, 25 and 37°C together; buffer BTP pH 7.0, 200 mM NaCl
T1 construct: E. coli RecO, recombination mediator of the RecF pathway; source: E. coli BL21(DE3)pLysS, plasmid pMCSG7, purified (Ni-NTA, HiTrap Heparin HP) after His-tag cleavage with TEV protease
T1 sequence (looked up): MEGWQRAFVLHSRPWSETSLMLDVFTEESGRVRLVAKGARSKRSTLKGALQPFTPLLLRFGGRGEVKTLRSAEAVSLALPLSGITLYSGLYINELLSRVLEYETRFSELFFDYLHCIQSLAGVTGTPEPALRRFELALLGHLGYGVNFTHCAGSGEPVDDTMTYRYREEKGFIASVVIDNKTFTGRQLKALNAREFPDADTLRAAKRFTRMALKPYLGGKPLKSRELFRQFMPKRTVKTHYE

[2] = target: T1, Escherichia coli RecO protein; experiment: ITC; SSB tetramer in 1:1 complex with (dT)70 titrated into RecO; buffer BTP pH 7.0, 200 mM NaCl, 15°C; N fixed to 4, K and ΔH per C-terminus
[3] = target: T1, Escherichia coli RecO protein; experiment: ITC; SSB tetramer in 1:1 complex with (dT)70 titrated into RecO; buffer BTP pH 7.0, 200 mM NaCl, 37°C; N fixed to 4, K and ΔH per C-terminus
[4] = target: T1, Escherichia coli RecO protein; experiment: ITC; wtSSB–(dT)70 complex and RecO, fits with N floated (RecO per SSB tetramer), told for 15, 25 and 37°C together; buffer BTP pH 7.0, 200 mM NaCl
[5] = target: T1, Escherichia coli RecO protein; experiment: ITC; SSB tetramer–(dT)70 complex (9–10 μM) titrated into RecO (1 μM); buffer BTP pH 7.0, 200 mM NaCl, 25°C; N fixed to 4, K and ΔH per C-terminus
[6] = target: T1, Escherichia coli RecO protein; experiment: ITC; apo SSB tetramer (8–10 μM) titrated into RecO (1 μM); buffer BTP pH 7.0, 200 mM NaCl, 15°C; N fixed to 4 RecO per tetramer, K and ΔH per C-terminus
[7] = target: T1, Escherichia coli RecO protein; experiment: ITC; apo SSB tetramer (8–10 μM) titrated into RecO (1 μM); buffer BTP pH 7.0, 200 mM NaCl, 37°C; N fixed to 4 RecO per tetramer, K and ΔH per C-terminus
[8] = target: T1, Escherichia coli RecO protein; experiment: ITC; apo SSB tetramer (9–10 μM) titrated into RecO (1 μM); buffer BTP pH 7.0, 200 mM NaCl, 25°C; N fixed to 4 RecO per tetramer, K and ΔH per C-terminus

B1: Escherichia coli single stranded DNA binding protein (SSB), wild-type tetramer (natural protein, E. coli, UniProt P0AGE0 1-178, looked up)
chain: MASRGVNKVILVGNLGQDPEVRYMPNGGAVANITLATSESWRDKATGEMKEQTEWHRVVLFGKLAEVASEYLRKGSQVYIEGQLRTRKWTDQSGQDRYTTEVVVNVGGTMQMLGGRQGGGAPAGGNIGGGQPQGGWGQPQQPQGGNQFSGGAQSRPQQSAPAAPSNEPPMDFDDDIPF
notes: Homo-tetramer; used alone (apo) and in a 1:1 complex with (dT)70 (told apart by the assay); also called wtSSB; SSB tetramer
stoichiometry N [1]: 3.4 to 4 | dH (per tip, ΔH/4) [2]: -6.4 ± 0.2 kcal/mol | dH (per tip, ΔH/4) [3]: -5.3 ± 0.6 kcal/mol | stoichiometry N [4]: ~4 | dH (per tip, ΔH/4) [5]: -10.3 ± 0.2 kcal/mol | dH (per tip, ΔH/4) [6]: -9.8 ± 0.3 kcal/mol | dH (per tip, ΔH/4) [7]: -8.3 ± 0.8 kcal/mol | dH (per tip, ΔH/4) [8]: -9.4 ± 0.5 kcal/mol
